In ChEMBL document CHEMBL3297684, “Discovery of biarylaminoquinazolines as novel tubulin polymerization inhibitors” (J Med Chem, 2014):
The source made the active and inactive calls. No cut-off for these calls is given here.

Sequences of proteins named here, by UniProt entry; tags and fusion partners are left off.
UniProt Q6B856, whole entry, looked up: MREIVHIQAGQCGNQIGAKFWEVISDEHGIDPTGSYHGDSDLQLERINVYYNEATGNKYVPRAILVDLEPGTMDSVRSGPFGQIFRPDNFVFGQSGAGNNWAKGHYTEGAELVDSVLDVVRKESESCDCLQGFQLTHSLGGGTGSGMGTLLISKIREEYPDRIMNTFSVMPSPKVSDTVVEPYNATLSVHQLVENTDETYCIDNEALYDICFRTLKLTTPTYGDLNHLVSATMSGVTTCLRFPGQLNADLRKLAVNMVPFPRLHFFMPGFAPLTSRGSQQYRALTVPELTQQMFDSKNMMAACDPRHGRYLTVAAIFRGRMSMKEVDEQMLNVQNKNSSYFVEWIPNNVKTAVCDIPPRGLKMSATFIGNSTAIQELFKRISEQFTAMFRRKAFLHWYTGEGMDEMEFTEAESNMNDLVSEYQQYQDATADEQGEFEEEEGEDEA

Key:
[1] = target: T1, Tubulin (Bos taurus) (UniProt Q6B856+Q862L2+Q862F3); experiment: Stimulation of bovine brain tubulin polymerization after 20 mins by turbidimetry analysis
[2] = target: T1, Tubulin (Bos taurus); experiment: Stimulation of [3H]colchicine binding to bovine brain tubulin at 5 uM after 10 mins

Activity [1]: Active
Activity [2]: Active
Structure (SMILES): CC(=O)O[C@H]1C(=O)[C@@]2(C)[C@H]([C@H](OC(=O)c3ccccc3)[C@]3(O)C[C@H](OC(=O)[C@H](O)[C@@H](NC(=O)c4ccccc4)c4ccccc4)C(C)=C1C3(C)C)[C@]1(OC(C)=O)CO[C@@H]1C[C@@H]2O [PACLITAXEL]
